Data on 1 compound can be found in patent US7144452B2, “Ink jet black ink, ink set, ink jet recording method, ink cartridge, recording unit, and ink jet recording apparatus” (Canon Kabushiki Kaisha, priority 2004, dated 2006).

The data set can be described thus: Relative permittivity of water-soluble organic solvent (LCR meter). Conditions: room temperature of 20° C.

`CCCCOCCOCCO`: the “Relative permittivity (measurement frequency: 1 MHz)” value is given as 10.3.
